Where two headings read alike, the source gives them in different places.
Tests used:
[1] = tested on: male, Lewis rats; conditions: 1 hour after carageenan, measured 4 hours later
[2] = tested on: male, Lewis rats

C[C@@H]1C[C@H]2[C@@H]3CCC4=CC(=O)C=C[C@]4(C)[C@@]3(F)[C@@H](O)C[C@]2(C)[C@@]1(O)C(=O)CO [Dexamethasone]
% Inhibition Exudate ([1]; 2.0 μg/rat intrapleural): 10%
% Inhibition WBC ([1]; 2.0 μg/rat intrapleural): 8%
% Inhibition Exudate ([1]; 10.0 μg/rat intrapleural): 41%
% Inhibition Exudate ([1]; 50 μg/rat intrapleural): 83%

C[C@]12C=CC(=O)C=C1CC[C@@H]1[C@@H]2[C@@H](O)C[C@@]2(C)[C@H]1CC[C@]2(O)C(=O)CO [Prednisolone]
% Inhibition WBC ([1]; 50 μg/rat intrapleural): 23%
% Inhibition Exudate ([1]; 250 μg/rat intrapleural): 30%
% Inhibition Exudate ([1]; 1250 μg/rat intrapleural): 55%
% Inhibition WBC ([1]; 1250 μg/rat intrapleural): 97%
% Inhibition MPO (u/cm) ([2]; 3 mg/kg po): 41%
% Inhibition MPO (u/cm) ([2]; 12 mg/kg po): 46%
% Inhibition Tissue swelling (edema) ([2]; 12 mg/kg po): 40%

O=C(O)c1cc(/N=N/c2ccc(S(=O)(=O)Nc3ccccn3)cc2)ccc1O [Sulfasalazine]
% Inhibition MPO (u/cm) ([2]; 100 mg/kg po): 20%
% Inhibition Tissue swelling (edema) ([2]; 100 mg/kg po): 10%
% Inhibition MPO (u/cm) ([2]; 300 mg/kg po): 16%
% Inhibition Tissue swelling (edema) ([2]; 300 mg/kg po): 14%
